# Key:
# Chains of the proteins cited; added tags and fusions are not shown.
# UniProt P47747, whole entry: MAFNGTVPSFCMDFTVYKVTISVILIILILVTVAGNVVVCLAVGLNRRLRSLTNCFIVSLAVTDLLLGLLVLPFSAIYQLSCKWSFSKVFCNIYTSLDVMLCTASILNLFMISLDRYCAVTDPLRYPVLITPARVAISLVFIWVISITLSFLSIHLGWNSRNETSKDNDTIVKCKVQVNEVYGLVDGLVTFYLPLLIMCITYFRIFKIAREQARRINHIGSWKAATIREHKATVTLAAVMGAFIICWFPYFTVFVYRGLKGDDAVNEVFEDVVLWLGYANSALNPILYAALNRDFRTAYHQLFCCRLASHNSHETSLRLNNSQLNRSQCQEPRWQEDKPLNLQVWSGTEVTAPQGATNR
# Histamine H2 receptor = Histamine H2 receptor (Cavia porcellus, UniProt P47747); test: In vitro inhibition of Histamine H2 receptor by measuring its ability to block the histamine-stimulated adenylate cyclase of guinea pig hippocampal homogenate; assay type: tissue-based, Hippocampus
# [1] = molecular target: Histamine H2 receptor (Cavia porcellus) (UniProt P47747); test: In vitro inhibition of Histamine H2 receptor by measuring its ability to block dimaprit-stimulated chronotropic response of guinea pig atrium strips; assay type: functional, tissue-based; conditions: Cardiac atrium
Compound,Ki (Histamine H2 receptor) [nM],-Log KB [1]
CN/C(=N/CCSCc1nc[nH]c1C)NC#N [CIMETIDINE],501,–
CN/C(=N\CCSCc1nc[nH]c1C)NC#N [CIMETIDINE],–,6.31
